{"source": "paper PMC2187893", "about": "(The Journal of Experimental Medicine, 1990)", "system": "human peripheral blood T cells", "assay": "Naloxone inhibition of T cell migration to stimuli", "format": "cell-based", "settings": "donor 4, stimulus at 100 U/ml; spontaneous locomotion subtracted", "data": [{"substance": "IL-2: the lymphokine IL-2", "values": [{"measurement": "Specific migration without naloxone", "value": "1,440"}]}]}
